A word on the Kd: it is the equilibrium constant for the complex coming apart.

Kd data for one molecule are collected here from US4261883A (priority 1979, dated 1981).

This test concerns opioid receptors in P3 from bovine caudate nucleus homogenate. As to the kind of experiment: stereospecific binding by competition with 3H-etorphine, P3 from bovine caudate nucleus homogenate. As to conditions: read-out: Kd in binding to P3 from bovine caudate nucleus homogentate; by competition with 3H-etorphine binding to P3, 25°.

Consider `Oc1ccc2c3c1O[C@H]1[C@@H](O)C=C[C@H]4[C@@H](C2)NCC[C@@]341` [normorphine], for which the Kd is 90 nM.
